## Ab-14 heavy chain CDR variants: yeast mating affinities

Source: Engelhart et al. 2022 (doi:10.1038/s41597-022-01779-4), MIT Lincoln Laboratory and A-Alpha Bio; data file from the FLAb repository.

Target: peptide PDVDLGDISGINAS, taken from heptad repeat 2 (HR2) of SARS-CoV-2 spike.

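The parent was found by panning a naive human phage display library on the peptide. In library AAYL49, one, two or three CDR residues were substituted; doubles and triples were drawn at random. AlphaSeq pools MATa yeast showing the antibodies with MATalpha yeast showing the peptide. The frequency of each diploid, read from paired DNA barcodes, reflects how well the two displayed proteins bind. A regression on co-assayed BCL2-family reference pairs converts the normalised counts of each replicate to an apparent Kd. The assay was run in three technical replicates.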

The variants keep the light chain, the linker and the frameworks of Ab-14 (scFv order VH, a (GGGGS)3 linker, VL).
VH: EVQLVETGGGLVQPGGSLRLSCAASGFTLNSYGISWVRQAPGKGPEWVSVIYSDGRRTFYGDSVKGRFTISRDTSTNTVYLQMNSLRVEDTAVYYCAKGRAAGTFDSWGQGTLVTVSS
VL: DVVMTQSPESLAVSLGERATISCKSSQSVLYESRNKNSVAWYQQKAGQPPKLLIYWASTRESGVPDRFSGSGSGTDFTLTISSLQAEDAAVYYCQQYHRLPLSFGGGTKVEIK

The parent's heavy chain CDRs are GFTLNSYGIS, VIYSDGRRTFYGDSVK, GRAAGTFDS; each variant's own CDRs replace them letter for letter.
Scale: log10 of Kd in nM, estimated from mating counts; low values are strong binders.
"ND" marks a missing value. The strain was present, yet no cells mated with the target were sequenced in that replicate, which points to weak or no binding.
Three control strains display no target. For library AAYL49, 15% of the pairings with them gave a signal, with a median of 4.06 and one signal in twenty below 2.83, so weak values seen in few replicates may be background. The control count says in how many pairings with the empty strains this scFv gave a signal, with their mean in brackets.
Parent in this assay: reference entry 0.65, copy in this library 4.11 (one replicate of three).

| CDR-H1 | CDR-H2 | CDR-H3 | log10 Kd (nM) by replicate | signal with controls |
|---|---|---|---|---|
| GFTLNSYGIS | VRDSDGRRTFYGDSVK | GRAAGTFDS | ND ND ND | 1 of 9 (4.43) |
| GLTLNSYGHS | VIYSCGRRTFYGDSVK | GRAAGTFDS | ND 2.60 ND | 0 of 9 |
| KFTLNSYGIS | GIYSDGRRTFYGDSVK | GRAHGTFDS | 4.51 3.81 4.75 | 4 of 9 (3.60) |
| GFTLNSYGIF | VIYSDGRRTVYGDSVN | GRAAGTFDS | ND 3.77 4.05 | 0 of 9 |
| GFTLNSYGIS | IIYSDGRRQFYGDSVK | GRAASTFDS | 5.40 ND ND | 2 of 9 (3.97) |
| GFTPNSYGIS | VMYSDGRRTFYGDSKK | GRAAGTFDS | ND ND ND | 1 of 9 (3.56) |
| GFTLNSYGID | VIYSDGRRTFYGDSVK | GRAAGTMDS | ND ND ND | 1 of 9 (3.22) |
| GFTLNSFGIS | VWYSDGRVTFYGDSVK | GRAAGTFDS | ND ND ND | 0 of 9 |
| GFTLNSYGIS | VIYPDGRRTFYGDSCK | GRAAGTFDS | 3.59 3.03 3.89 | 3 of 9 (4.10) |
| GFTLNSYGID | VIYSDGRRTFYGDSVQ | GRAAGTFDH | ND ND ND | 1 of 9 (4.78) |
| GFTLNSYGIS | VIYSDGRRTFYGLSHK | GRAIGTFDS | ND ND ND | 2 of 9 (4.12) |
| GFTTNSYGIS | VIYSDRHRTFYGDSVK | GRAAGTFDS | ND ND 4.06 | 1 of 9 (3.12) |
| GFTLNSYGAS | VIYSDGRCTFYGDSVK | GRAAGTMDS | ND 3.34 4.84 | 0 of 9 |
| GFTLNSYEIS | VIYSDGRRTFYGDSVK | GRAAGIFLS | ND ND ND | 0 of 9 |
| GFTLNSYYIS | VIYSDRRRTFYGDSVK | GRAAGTFDS | 3.55 ND ND | 1 of 9 (3.98) |
| PRTLNSYGIS | VIYSDGRRTFYGWSVK | GRAAGTFDS | ND 2.31 ND | 0 of 9 |
| GFTLNSYGIS | VIYEDGCRTFYGDIVK | GRAAGTFDS | ND ND 3.25 | 2 of 9 (3.49) |
| GFTLDSYGME | VIYSDGRRTFYGDSVK | GRAAGTFDS | ND 3.31 ND | 2 of 9 (3.13) |
| GFTLNSYGIG | GIYSDGRRQFYGDSVK | GRAAGTFDS | 5.70 ND ND | 1 of 9 (3.80) |
| GFTLNDYGIS | VIYSDGPRTFYGDSMK | GRAAGTFDS | ND 3.74 ND | 1 of 9 (3.55) |
| GFTLNSYGIS | VIYSDHNRTFYGDSVK | GRAASTFDS | 4.29 ND ND | 0 of 9 |
| GFTLNSYGIS | YIYSDGRREFYGDSVK | GRHAGTFDS | ND ND ND | 1 of 9 (2.87) |
| GFTLNSYGIS | VGYSDGRRTFYGDSVK | GRAARTFDQ | ND ND ND | 1 of 9 (3.61) |
| GFTLNSYGIS | VIYSDGRSTFYGDSVD | GRAAGTFDT | ND ND ND | 1 of 9 (4.05) |
| GFTLNSYGIS | VIYSDGRRTFYGDYLK | GRAAGTFKS | ND ND ND | 1 of 9 (2.68) |
| GFTLNSYGIS | VIYSDGRRRFYGDSVP | GRAAGTQDS | ND ND ND | 0 of 9 |
| GFTLNSYGIK | VIYSDVRRTFYGDSVK | GRAAGTFDS | ND ND ND | 1 of 9 (2.99) |
| GFNLNSYGIS | VIYSDGRLTFYGDSVK | VRAAGTFDS | ND ND ND | 0 of 9 |
| IFTLNSYMIS | VIYSDGRRTFYGDSVP | GRAAGTFDS | ND 3.37 ND | 0 of 9 |
| GFTLNSYGIS | VIPSDVRRTFYFDSVK | GRAAGTFDS | ND ND ND | 0 of 9 |
| GGTLNSYGIS | YIYSDSRRTFYGDSVK | GRAAGTFDS | ND 3.63 ND | 0 of 9 |
| GFTLNSYGIS | VIYSWGYRTFYGDSVK | GNAAGTFDS | ND ND ND | 0 of 9 |
| GFTLNSYKIH | VIYSDGRRTFYGDSVK | GRAAGTFDS | ND ND ND | 0 of 9 |
| GFTLNSYGFS | VIYSDGRRCFYGDEVK | GRAAGTFDS | 2.24 1.98 2.06 | 0 of 9 |
| GFTLNSYGGS | VIYSDGRRTFYGDSVK | GRAAGTFDS | ND ND ND | 0 of 9 |
| GFTLNSYGIS | VIYSDRRNTFYGDSVK | GRLAGTFDS | ND ND ND | 1 of 9 (3.08) |
| DFTLNSYGIS | VIYSDGRRTFYGDSVK | GRATGTFDS | 1.75 1.85 1.76 | 3 of 9 (3.41) |